IL2 activator: IL-2 activation. activation, % (series mostly up to about 46 µM). 0.065% of 360,000 active. IL-2 activation reporter assay, cell-based qHTS; stimulated with anti-CD3/CD4/CD28 beads; in transgenic mouse T cells; in the data active means activation above about 50%; inconclusive means mostly about 30% to 49%
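Unstimulated transgenic mouse T cells, 750 per well, received compound and, after 60 minutes, anti-CD3/anti-CD4 bead plus anti-CD28 stimulation. EGFP and DsRed were quantified after 18 hours.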
A549 tox-1: counter-screen for Nrf2 inhibitors: cytotoxicity in A549 cells; 0.16% of 390,000 active; A549 ARE-Fluc cells, CellTiter-Fluor viability, 18-24 h; Potency, µM (top dose mostly 46 µM), hits mostly inhibitors
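A549 ARE-Fluc cells in 5% FBS OPTI-MEM, 5000 cells/well, rested 2 h then exposed to compounds in concentration-response for 18-24 h at 37 °C. Viability by CellTiter-Fluor fluorescence (Ex 405/Em 525) after 30 min; luciferase luminescence (BugLite, 15 min, RT) read afterwards.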
Nrf2 block: inhibitors of Nrf2 signaling; A549 ARE-Fluc reporter, luciferase luminescence, 18-24 h; Potency, µM (doses to about 46 µM), most hits filed as inhibitors; 2.1% of 360,000 active; AID 504444; further: nearly all actives have a fitted effect of over 60% in size
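Two sequential reads on A549 ARE_Fluc cells exposed to compound for 18-24 h: a CellTiter-Fluor fluorescence read for viability, then a luciferase luminescence read for Nrf2/ARE activity.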
miR-21 reporter: raises the signal of a miR-21 reporter | Potency, µM (doses to about 38.3 µM) | HeLa miR-21 FLuc reporter, luciferase, 48 h | AID 2288 | 340,000 tested, under 10 active; active = well fitted rising curve with a large enough effect; inconclusive = small, poorly fitted or top-dose-only effect; inactive = no such curve, though single readings can be large or run the other way;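 also: miR-21 action dims this reporter so a rising signal means less miR-21 action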
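Compounds were titrated across several concentrations (up to approximately 40 uM) and incubated 48 hours with HeLa miR-21-FLuc reporter cells (miR-21 target sequence downstream of FLuc, endogenous miR-21). Readout was firefly luciferase luminescence after lytic detection reagent.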
ClpP mod: qHTS Assay for Activators of ClpP | 1.9% of 340,000 active | purified B. subtilis ClpP, FRET peptide cleavage, 20 min | Potency, µM (series often up to 57.5 µM) | ATP-dependent Clp protease proteolytic subunit (Bacillus subtilis (strain 168)), P80244 | AID 651965, 2013; active means well fitted falling curve with a large enough effect; inconclusive means small, poorly fitted or top-dose-only effect; inactive means no such curve, though single readings can be large or run the other way; further: the source files actives as falling curves though it sought activators and does not explain the sign; nearly all actives have a fitted effect of over 65% in size
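Buffer: 100 mM Tris/HCl pH8, 100 mM KCl, 0.05% low protease BSA, 2.5% glycerol, 0.01% Tween-20. ClpP 10 microg/mL final; 20 min RT; delta FRET normalized to ADEP and DMSO controls.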
Nrf2 ARE act: activators of Nrf2 (ARE) signaling. AREc32 ARE-luciferase reporter (MCF7-derived line), luminescence, 24 h. Potency, µM (doses to about 46.1 µM), most hits filed as activators. 0.31% of 410,000 active. AID 624171; further: nearly all actives have a fitted effect of over 65% in size
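AREc32_Fluc, 1000 cells/well, OPTI-MEM + 5% FBS, o/n 37 deg C 5% CO2; 23 nL cpd by pin tool, 24 hr; Steady-Glo 30 min RT, luminescence.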
FLuc enzyme inh: blocks purified firefly luciferase in Nrf2 counterscreen; purified firefly luciferase, luminescence inhibition; Potency, µM (titrated, usually from 57.5 µM), actives largely listed as inhibitors; AID 720522; 4% of 1,400 active; shares compounds with Nrf2 block; further: nearly all actives have a fitted effect of over 65% in size
A549 tox-2: counter-screen for Nrf2 inhibitors: cytotoxicity in A549 ARE cells. shares compounds with Nrf2 block. A549 ARE-Fluc cells, cytotoxicity counterscreen. Potency, µM (titrated, usually from 46.1 µM), usual class: inhibitors. 2% of 1,400 active;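 further: cells exposed to compounds for 18 to 24 hours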
Nrf2 ARE inh: reduces Nrf2 ARE reporter signal in A549 cells; shares compounds with Nrf2 block; A549 ARE-firefly luciferase reporter, luminescence; Potency, µM (series often up to 46.1 µM), hits mostly inhibitors; 74% of 1,400 active; AID 720524; further: nearly all actives have a fitted effect of over 65% in size
Each line names hits and unclear results; the compound was inactive in the other large screens (follow-up assays come after a bar, where shown). Shown are actives, neighbours in structure and some others; about 3.7% of the full set was active somewhere. Unless noted, the call rests on the fitted dose curve; in most records, active means well fitted curve in the direction sought with a large enough effect; inconclusive means small, poorly fitted or top-dose-only effect, or another doubt; inactive means no such curve, though single readings can be large; an effect the other way counts as inactive or inconclusive.

Cc1cccc(N2CCN(C(=O)C3CCC(CNS(=O)(=O)c4cccs4)CC3)CC2)c1C (stereo unspecified)	Nrf2 block 6.51µM, miR-21 reporter inconclusive (no result: ClpP mod) | FLuc enzyme inh inactive | A549 tox-2 inactive | Nrf2 ARE inh 8.2µM
CCCCN=c1scc(-c2ccc3c(c2)NC(=O)CO3)n1N=C1CCCC1	none (no result: Nrf2 block)
CCN=c1scc(-c2ccc3c(c2)NC(=O)CO3)n1N=C1CCCC1	Nrf2 block 16.4µM, miR-21 reporter inconclusive | FLuc enzyme inh inactive | A549 tox-2 inactive | Nrf2 ARE inh 7.31µM
COCC(C)n1c(-c2ccc3c(c2)NC(=O)CO3)csc1=Nc1ccc(OC(F)F)cc1 (stereo unspecified)	A549 tox-1 inconclusive, Nrf2 block 10.3µM | FLuc enzyme inh inactive | A549 tox-2 inactive | Nrf2 ARE inh 9.2µM
Cc1ccc(-n2c(-c3ccc(Cl)cc3)c[n+]3c2CCC3)cc1	Nrf2 block 3.66µM, miR-21 reporter inconclusive | FLuc enzyme inh inactive | A549 tox-2 inactive | Nrf2 ARE inh inactive
Cc1ccc(-n2c(-c3ccccc3)c[n+]3c2CCC3)cc1	A549 tox-1 inconclusive, Nrf2 block 5.8µM | FLuc enzyme inh inactive | A549 tox-2 inactive | Nrf2 ARE inh 6.51µM
C[C@]12C=CC(=O)C=C1CC[C@H]1[C@@H]3C[C@@H](O)[C@](O)(C(=O)CO)[C@@]3(C)C[C@H](O)[C@@]12F	Nrf2 block 0.411µM | FLuc enzyme inh inactive | A549 tox-2 inactive | Nrf2 ARE inh 0.092µM
CC(=O)C1CCC2C3CCC4=CC(=O)CCC4(C)C3(F)C(O)CC12C (stereo unspecified)	Nrf2 block 0.92µM (no result: miR-21 reporter) | FLuc enzyme inh inactive | A549 tox-2 inactive | Nrf2 ARE inh 2.06µM
CC1CC2C3CCC4=CC(=O)C=CC4(C)[C@@]3(Cl)C(O)CC2(C)C1(O)C(=O)CO (stereo partly specified)	Nrf2 block inconclusive (no result: miR-21 reporter)
CC(=O)OCC(=O)C1(O)CCC2C3CCC4=CC(=O)C=CC4(C)C3(F)C(O)CC21C (stereo unspecified)	Nrf2 block 0.0103µM (no result: miR-21 reporter) | FLuc enzyme inh inactive | A549 tox-2 inactive | Nrf2 ARE inh 0.013µM
C[C@@H]1C[C@H]2[C@@H]3CCC4=CC(=O)C=C[C@]4(C)[C@@]3(F)C(O)C[C@]2(C)[C@@]1(O)C(=O)CO (stereo partly specified)	Nrf2 block 0.0052µM (no result: IL2 activator, miR-21 reporter, Nrf2 ARE act) | FLuc enzyme inh inactive | A549 tox-2 inactive | Nrf2 ARE inh 0.0065µM
CC(=O)OCC(=O)[C@@]12OC3(CCCC3)O[C@@H]1C[C@H]1[C@@H]3CCC4=CC(=O)C=C[C@]4(C)[C@@]3(F)[C@@H](O)C[C@@]12C	Nrf2 block inconclusive
CC1CC2C3CCC4=CC(=O)C=CC4(C)C3(F)C(O)CC2(C)C1(O)C(=O)CO (stereo unspecified)	Nrf2 block inconclusive
Cc1ccc(-c2noc(C3CC(=O)N(c4ccc5c(c4)OCCO5)C3)n2)cc1 (stereo unspecified)	none (no result: IL2 activator)
CC12CCC(=O)C=C1CCC1C3CC(O)C(O)(C(=O)CO)C3(C)CC(O)C12F (stereo unspecified)	Nrf2 block 0.103µM (no result: miR-21 reporter, ClpP mod) | FLuc enzyme inh inactive | A549 tox-2 inactive | Nrf2 ARE inh 0.0517µM
c1ccc(C[n+]2cccc3c4ccccc4ccc32)cc1	A549 tox-1 inconclusive, Nrf2 block inconclusive | FLuc enzyme inh inactive | A549 tox-2 inactive
